The EC50 is the concentration at which the effect is half-maximal. Read a low EC50 as higher potency in that assay.

This assay has as its target T1, mFFA4 (mouse FFA4) (Mus musculus, UniProt Q7TMA4).
T1 sequence (Q7TMA4 1-361): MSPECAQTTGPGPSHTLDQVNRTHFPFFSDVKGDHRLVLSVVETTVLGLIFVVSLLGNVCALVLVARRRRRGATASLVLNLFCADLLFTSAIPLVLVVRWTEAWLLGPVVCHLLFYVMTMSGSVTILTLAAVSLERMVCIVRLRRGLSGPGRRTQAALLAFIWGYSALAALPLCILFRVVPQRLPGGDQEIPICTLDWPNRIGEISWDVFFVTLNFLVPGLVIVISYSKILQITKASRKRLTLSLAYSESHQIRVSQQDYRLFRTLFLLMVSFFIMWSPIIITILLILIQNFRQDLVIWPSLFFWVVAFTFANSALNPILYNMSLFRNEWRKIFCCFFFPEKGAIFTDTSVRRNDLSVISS
Briefly: Ca2+ mobilisation, Fura-2, Flp-In T-REx […]. It is filed as cell-based. A general note: A change in cytosolic calcium serves as a functional read-out for many receptors and channels.

Each structure is given as a SMILES string.

The compound `Cc1ccc(-c2ccc(F)cc2COc2ccc(CCC(=O)O)cc2)cc1` [TUG-891, 4-[(4-Fluoro-4’-methyl[1,1’-biphenyl]-2-yl)methoxy]-benzenepropanoic acid] gave an EC50 of 316 nM.

The values above are taken from article doi:10.1101/2025.02.02.636098v1 (biorxiv, 2025).
